High-throughput results: PubChem, National Center for Advancing Translational Sciences (NCATS)
ClpP mod = qHTS Assay for Activators of ClpP. ATP-dependent Clp protease proteolytic subunit (Bacillus subtilis (strain 168)), P80244. purified B. subtilis ClpP, FRET peptide cleavage, 20 min. Potency, µM (highest dose often 57.5 µM). 1.9% of 340,000 active. AID 651965, 2013; active = well fitted falling curve with a large enough effect; inconclusive = small, poorly fitted or top-dose-only effect; inactive = no such curve, though single readings can be large or run the other way; also: the source files actives as falling curves though it sought activators and does not explain the sign; nearly all actives have a fitted effect of over 65% in size
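FRET quenching reversal measured ClpP activation: 10 microg/mL B. subtilis ClpP at pH 8 with the FRET-FV decapeptide, read at 430 nm after 320 nm excitation. The 20-min minus 0-min signal was scaled between DMSO/no-enzyme wells and ADEP (5.8 microM final).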
TrxR1 substrate = is turned over as a substrate by rat TrxR1 | O89049 | purified TrxR1 substrate turnover, NADPH consumption readout | Potency, µM (series often up to 114 µM) | 0.01% of 390,000 active | AID 588456; also: nearly all actives have a fitted effect of over 50% in size
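Rat TrxR1, dispensed at 90 nM, was prereduced with 400 uM NADPH (final) for 5 min at ~22 deg C, then incubated with compound 15 min before 400 uM selenite. A first-read NADPH fluorescence drop versus no-compound background flagged substrates.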
miR-21 reporter = miR-21 reporter, rising signal; HeLa miR-21 FLuc reporter, luciferase, 48 h; Potency, µM (doses to about 38.3 µM); 340,000 tested, under 10 active; AID 2288; active = well fitted rising curve with a large enough effect; inconclusive = small, poorly fitted or top-dose-only effect; inactive = no such curve, though single readings can be large or run the other way;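 further: miR-21 action dims this reporter so a rising signal means less miR-21 action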
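HeLa cells stably expressing CMV-driven firefly luciferase with a downstream miR-21 binding sequence, endogenously expressing miR-21, were treated with titrations (up to about 40uM final) for 48 hours at 37 degree Celsius. Luciferase luminescence was read after lysis.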
Anesthetic bind = candidate novel general anesthetic via apoferritin binding; apoferritin/1-aminoanthracene competitive binding, fluorescence; AID 485281; Potency, µM (doses to about 77.5 µM), actives largely listed as inhibitors; 0.074% of 350,000 active; P02791; also: nearly all actives have a fitted effect of over 20% in size
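10 uM apoferritin + 50% sat. 1-AMA, PBS; cpd 10 min RT; Ex380/Em535 endpoint; normalized to free probe vs complex; 4-param Hill fit; propofol titration as pos. ctrl.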
rTrxR1 inhibitor = blocks rat thioredoxin reductase 1 | recombinant rTrxR1, NADPH fluorescence consumption, selenite substrate | Potency, µM (top dose mostly 114 µM), usual class: inhibitors | 1% of 390,000 active | AID 588453; also: nearly all actives have a fitted effect of over 65% in size
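Rat TrxR1 (90 nM in the dispensed reagent) was pre-reduced with 400 uM NADPH for 5 min at room temperature, then incubated with compound for 15 min. After 400 uM selenite was added, NADPH fluorescence (Ex 340/Em 450 nm) was followed for 8 min.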
Hits are given with their value; 0 = inactive; ? = inconclusive; - = no result. Only some compounds are listed: those with a hit (about 2.5% of all), similar ones and a draw of the others. Unless noted, calls follow the shape of the dose curve; as a rule, active = well fitted curve in the direction sought with a large enough effect; inconclusive = small, poorly fitted or top-dose-only effect, or another doubt; inactive = no such curve, though single readings can be large; an effect the other way counts as inactive or inconclusive.

Protein sequences, listed by entry. Tags and fused reporters are not part of them.
ATP-dependent Clp protease proteolytic subunit (Bacillus subtilis (strain 168)), P80244, UniProt P80244, whole entry, looked up: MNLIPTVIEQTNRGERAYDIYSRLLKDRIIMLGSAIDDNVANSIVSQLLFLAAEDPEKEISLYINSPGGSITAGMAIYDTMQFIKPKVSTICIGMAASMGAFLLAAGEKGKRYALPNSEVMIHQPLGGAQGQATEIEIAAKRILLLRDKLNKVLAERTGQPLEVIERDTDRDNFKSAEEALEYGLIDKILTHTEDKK

SMILES	ClpP mod	TrxR1 substrate	miR-21 reporter	Anesthetic bind	rTrxR1 inhibitor
C[C@@H]1Cc2c(O)c(O)cc(O)c2C(=O)O1	0	0	0	0	?
CC1CCC/C=C/C(=O)c2c(O)cc(O)cc2CC(=O)O1 (stereo not drawn)	0	0	?	0	11.2µM
O=C1/C(=C/c2ccncc2)SC(=S)N1N1CCOCC1	0	0	0	0	22.4µM
COc1ccc(Cl)cc1NC(=O)CN1C(=O)COc2ccc(S(=O)(=O)NC3CCCC3)cc21	0	0	0	0	0
c1coc(-c2nc(-c3ccco3)c(-c3ccco3)nc2-c2ccco2)c1	?	0	0	0	2.82µM
Nc1nc(-c2ccco2)cs1	0	0	0	0	0
COc1ccc2nc(-c3ccco3)c(-c3ccco3)nc2c1	0	0	0	0	8.91µM
COc1ccc2nc3cccc(OC)c3nc2c1	0	0	0	0	0
c1coc(-c2nc3cc4ccccc4cc3nc2-c2ccco2)c1	-	0	-	-	4.47µM
O=C(NCc1ccccc1)c1ccc2nc(-c3ccco3)c(-c3ccco3)nc2c1	0	0	0	0	?
Nc1nc(-c2ccco2)c(-c2ccco2)s1	0	0	0	?	50.1µM
CC(C)(C)n1ncc2c(=O)n(Cc3cc(C(F)(F)F)ccc3Cl)cnc21	-	0	-	-	0
CC(C)(C)n1ncc2c(=O)n(Cc3ccc(OC(F)(F)F)cc3)cnc21	-	0	-	-	0
CCCCN(C)C(=O)Cn1c(SCC(=O)Nc2ccc(C)c(C)c2)nc2ccccc21	0	0	0	0	0
COc1ccc(OC(C)C(=O)N2CCOCC2)cc1 (stereo not drawn)	0	0	0	0	0
CC(Oc1ccc(-c2ccccc2)cc1)C(=O)N1CCOCC1 (stereo not drawn)	25.1µM	0	0	0	0
C=CCn1c(-c2ccoc2)n[nH]c1=S	31.6µM	0	0	0	0
C=CCn1c(-c2ccccc2)n[nH]c1=S	0	0	0	0	0
N#CC(=Cc1ccccn1)c1nc(-c2ccc(Cl)cc2)cs1	25.1µM	-	-	-	-
O=[N+]([O-])C(/C=C(\Cl)[N+](=O)[O-])=C1N(Cc2ccc(Cl)nc2)CCN1Cc1ccc(Cl)nc1	0	0	0	0	1.78µM
COc1ccc(-c2nc3ccccn3c2Nc2ccccc2C)cc1	0	0	-	-	0
O=C(CSc1n[nH]c(-c2ccc(S(=O)(=O)N3CCCCC3)cc2)n1)Nc1nccs1	28.2µM	0	0	0	0
Cn1c(SCC(=O)Nc2nccs2)nnc1-c1ccc(S(=O)(=O)N2CCCC2)cc1	0	0	0	0	0
O=C(CSc1nnc(CCCN2C(=O)c3cccc4cccc(c34)C2=O)n1-c1ccccc1)N1CCN(CCO)CC1	14.1µM	0	0	0	0
Cc1ccc(Cl)cc1NC(=O)Cn1cc(S(=O)(=O)Cc2ccccc2Cl)c2ccccc21	0	0	0	0	0
SMILES	ClpP mod	TrxR1 substrate	miR-21 reporter	Anesthetic bind	rTrxR1 inhibitor
CCCN1C(=O)C(Cc2nc3ccccc3c(=O)n2CC)c2ccccc21 (stereo not drawn)	0	0	0	0	0
Cc1ccc(C)c(NC(=O)c2ccc(CN3CC(=O)N4CCCCC4C3=O)cc2)c1 (stereo not drawn)	0	0	0	0	0
Cc1cc(C)n(C(C[N+](=O)[O-])c2ccc(Cl)cc2)n1 (stereo not drawn)	0	0	0	?	5.62µM
CCc1ccc2oc(-c3cccc(NC(=O)C(C)(C)Oc4ccc(Br)cc4)c3)nc2c1	0	0	0	0	0
CC1(C)CC(=O)C(N=Nc2ccc(C(F)(F)F)cc2[N+](=O)[O-])=C(O)C1	-	0	0	0	0
CC1(C)CC(=O)C(C(C2=C(O)CC(C)(C)CC2=O)c2ccc(O)c([N+](=O)[O-])c2)=C(O)C1	-	0	0	0	12.6µM
COc1cc(OC)cc(-n2nnnc2SCC(=O)N2CCCC2)c1	0	0	0	0	0
COc1ccc(-n2nnnc2S(=O)(=O)CC(=O)N2CCCCC2)cc1	0	0	?	0	2.24µM
COc1ccc(-n2nnnc2S(=O)(=O)Cc2ccc(C(=O)O)cc2)cc1	0	0	0	0	15.8µM
Cc1ccc(-n2ncc(C(=O)NCCc3c[nH]c4ccccc34)c2C2CCN(C(=O)OC(C)(C)C)CC2)cc1C	0	0	?	0	0
Cc1nn(-c2ccccc2)c(Cl)c1CN(C(=O)CCl)c1ccc(Cl)cc1	0	0	?	0	22.4µM
COc1cccc(-n2c(-c3ccccc3F)nc3c(cnn3-c3ccc(C)cc3)c2=O)c1	?	0	0	0	0
Cc1cnc2ccc(I)cc2c1/C=C/c1ccc(N(C)C)cc1	0	0	-	-	0
COc1ccc(NC(=O)c2cc3c(s2)-c2c(C)cccc2OC3)cc1Cl	25.1µM	0	0	0	0
Cc1ccc(/C=C/C(=O)NCC2COc3ccccc3O2)o1 (stereo not drawn)	-	0	0	0	15.8µM
COc1ccc(/C=C/C(=O)NCC2COc3ccccc3O2)cc1OC (stereo not drawn)	-	0	0	?	0
CCOC(=O)c1cnn2c1[nH]c(=O)c1ccccc12	3.55µM	0	0	0	0
CCOC(=O)c1cnc(Cc2ccccc2)[nH]c1=O	0	0	0	0	0
O=C(c1ccc2c(=O)n(CCc3ccccc3)c(=O)[nH]c2c1)N1CCN(C(=O)c2ccco2)CC1	0	0	-	-	0
COc1ccc(-c2nc3c4ccccc4[nH]c(=O)n3n2)cc1	31.6µM	0	0	0	0
COc1cc2[nH]c(=O)n3nc(-c4ccccc4)nc3c2cc1OC	?	0	0	0	0
Cc1ccc(NC(=O)C2=C(c3ccccc3)S(=O)(=O)CCS2(=O)=O)cc1	-	0	?	0	0.316µM
Cc1cc(C(=O)Nc2ccc(S(=O)(=O)Nc3onc(C)c3C)cc2)c(C)o1	0	0	0	0	?
Cc1noc(NS(=O)(=O)c2ccc(NC(=O)c3ccoc3C)cc2)c1C	0	0	0	0	28.2µM
COC(=O)c1oc2nc(C)cc(C)c2c1N	28.2µM	0	0	0	0
SMILES	ClpP mod	TrxR1 substrate	miR-21 reporter	Anesthetic bind	rTrxR1 inhibitor
Cc1cc(C)c2c(N)c(C(=O)c3ccccc3)oc2n1	0	0	0	0	0
CC(NC(=O)/C=C/c1ccco1)c1nc2ccccc2n1Cc1cccc(Cl)c1 (stereo not drawn)	0	0	0	0	14.1µM
CCC(O)c1nc2ccccc2n1Cc1cccc(Cl)c1 (stereo not drawn)	0	0	0	0	0
CCN(CC)c1ccc2c(C)c(CO)c(=O)oc2c1	-	0	0	0	0
CCN(CC)c1ccc2c(C)c(CN3CCOCC3)c(=O)oc2c1	28.2µM	0	0	0	0
CCOc1ccc(C(O)c2nccn2Cc2ccccc2)cc1 (stereo not drawn)	0	0	0	0	0
CCn1ccnc1C(O)c1ccc(N(C)C)cc1 (stereo not drawn)	0	0	0	0	39.8µM
O=S1(=O)CCOCCCN1Cc1cccc(Cl)c1	0	0	-	-	0
CC(=O)NNC(=O)c1csc(-c2csc(C)n2)n1	31.6µM	0	0	0	0
